Results taken from patent US20040039173A1 (SALK INSTITUTE FOR BIOLOGICAL STUDIES, published 2004).

Molecular target: T1, human CRF receptor, subtype A, variant 1 (hCRF-RA1), encoded by clone hctCRFR (human, UniProt P34998 24-415)
T1 construct: Transiently expressed in COSM6 cells; Clone hctCRFR (ATCC 75474) and clone CRF-R1 are both said to encode hCRF-RA1; also called CRF-R1; hctCRF receptor
T1 sequence: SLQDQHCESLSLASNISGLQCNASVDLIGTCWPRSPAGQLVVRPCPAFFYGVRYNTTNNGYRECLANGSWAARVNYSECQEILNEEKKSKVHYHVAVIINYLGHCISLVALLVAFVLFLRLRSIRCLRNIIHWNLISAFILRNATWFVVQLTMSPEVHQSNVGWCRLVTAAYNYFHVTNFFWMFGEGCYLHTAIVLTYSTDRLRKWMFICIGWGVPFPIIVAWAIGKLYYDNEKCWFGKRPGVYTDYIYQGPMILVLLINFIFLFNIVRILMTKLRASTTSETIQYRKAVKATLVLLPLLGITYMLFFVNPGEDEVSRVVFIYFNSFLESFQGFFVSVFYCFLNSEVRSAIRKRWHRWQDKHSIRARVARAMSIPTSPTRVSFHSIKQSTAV
Experiment: binding to the receptor encoded by hctCRFR in COSM6 cell membranes (competitive radioreceptor assay of Example 3)
Experimental: Two days after transfection, the cells were washed twice with 1 ml HDB and were detached by incubation for 15 min at room temperature in 0.5 mM EDTA in HDB. After pelleting, the cells were washed twice with HDB, and then homogenized in 5% sucrose (16 ml/150 mm dish). The homogenate was centrifuged at 600×g for 5 minutes, and the resulting supernatant was centrifuged at 40,000×g for 20 minutes.
The reaction was terminated by filtration through GF/C (Whatman) filters, prewetted with 1% BSA, 10 mM HEPES, pH 7.5. The filters were washed 4 times with 1 ml 0.1% BSA, 50 mM Tris, pH 7.5.

B1: ovine CRF (ligand)
peptide: SQEPPISLDLTFHLLREVLEMTKADQLAQQAHSNRKLLDIA
modifications: chain 1: natural C-terminal amide (Ala41-NH2), which the letters cannot carry and the passages shown do not state
notes: also called oCRF
  Kd: 2.3 nM
